Literature values in patent publication US20040122104A1 (Collegium Pharmaceutical, Inc., priority 2002, published 2004).

Conditions: 100 mg/day twice daily

CCN(CC)C(=O)C1(c2ccccc2)CC1CN (stereo not shown) [milnacipran, Milnacipran]
spontaneously reported adverse events: constipation: 10%
